Results taken from PubChem BioAssay AID1556 (The Scripps Research Institute Molecular Screening Center, 2009).
This is a selection; strong and weak results do not stand in their true shares. The source made the active and inactive calls.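 The calls were made as follows: active = inhibition above the mean plus 3 SD of all compounds in the same screening run (cut at about 4.5% in these data); inactive = the rest.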

test system: metallo-beta-lactamase IMP-1 (Pseudomonas aeruginosa); test: IMP-1 metallo-beta-lactamase inhibitors, primary screen, biochemical, epi-absorbance readout, Pseudomonas aeruginosa enzyme (AID 1556); conditions: purified IMP-1, nitrocefin hydrolysis, epi-absorbance fluorescence; at 5.6 µM; active compounds read high;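 also: 0% = IMP-1 with DMSO and 100% = DMSO wells lacking enzyme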

**Q.** With `Oc1ccccc1CNc1ccccn1` as the molecule, how does the inhibition read?
**A.** inactive: -4.31%

**Q.** With `Cc1c2non([O-])c-2c(C)[n+](=O)[n+]1[O-]` as the molecule, how does the inhibition read?
**A.** inactive: -4.7%

**Q.** With `O=C(NC(Sc1ccncn1)C(Cl)(Cl)Cl)c1ccccc1` (stereo not drawn) as the molecule, how does the inhibition read?
**A.** inactive: -2.61%

**Q.** Which inhibition does the source give for `CC(C)CC(=O)NC(Sc1ccc(Cl)cc1)C(Cl)(Cl)Cl` (stereo not drawn) here?
**A.** inactive: -1.54%

**Q.** Which inhibition does the source give for `Nc1cc(N)c2nonc2c1[N+](=O)[O-]` here?
**A.** inactive: -4.06%

**Q.** How did the inhibition turn out when `Clc1ccc(Cl)c(NC2=NCC(CBr)S2)c1` (stereo not drawn) was run?
**A.** inactive: -1.4%

**Q.** How did the inhibition turn out when `CN1CCCC(OC(=O)C(c2ccccc2)c2ccccc2)C1` (stereo not drawn) was run?
**A.** inactive: -3.09%

**Q.** With `COc1ccccc1OP(=O)(Nc1ccc(C)cn1)Oc1ccccc1OC` as the molecule, how does the inhibition read?
**A.** inactive: -0.5%

**Q.** With `Cc1ccc(OP(=O)(Nc2nccs2)Oc2ccc(C)cc2)cc1` as the molecule, how does the inhibition read?
**A.** inactive: -4.07%

**Q.** For `Cc1ccc(N/C(=N/P(=O)(N2CCOCC2)N2CCOCC2)N2CCOCC2)cc1`, which inhibition is on record?
**A.** inactive: -2.6%

**Q.** For `NC(=O)c1cc([N+](=O)[O-])cc([N+](=O)[O-])c1N`, which inhibition is on record?
**A.** inactive: -0.3%

**Q.** With `CC(=O)Nc1ccc([As](=O)(O)O)c(O)c1` as the molecule, how does the inhibition read?
**A.** inactive: -1.62%

**Q.** For `CC(=O)Nc1ccc(Oc2c([N+](=O)[O-])cc([N+](=O)[O-])cc2[N+](=O)[O-])cc1`, which inhibition is on record?
**A.** inactive: -2.85%

**Q.** `CC(=O)c1ccc(N2CC2c2ccncc2)cc1` (stereo not drawn) was tested. Which inhibition did it give?
**A.** inactive: -2.82%

**Q.** How did the inhibition turn out when `CC(C)(C)C(=O)NC(Sc1ccccc1)C(Cl)(Cl)Cl` (stereo not drawn) was run?
**A.** inactive: -0.26%

**Q.** With `O=P1(Nc2nc3ccc(Cl)cc3s2)COc2ccccc2O1` (stereo not drawn) as the molecule, how does the inhibition read?
**A.** inactive: -2.43%

**Q.** With `CCOc1ccc(C2=NCC(CBr)S2)cc1` (stereo not drawn) as the molecule, how does the inhibition read?
**A.** inactive: -3.34%

**Q.** How did the inhibition turn out when `Cc1ccccc1OP(=O)(Nc1ccccn1)Oc1ccccc1C` was run?
**A.** inactive: -2.88%

**Q.** Which inhibition does the source give for `CN(C)C(=O)Oc1noc2ccccc12` here?
**A.** inactive: -1.88%

**Q.** Which inhibition does the source give for `O=c1c2cc([N+](=O)[O-])ccc2[nH]c2c([N+](=O)[O-])cc([N+](=O)[O-])cc12` here?
**A.** inactive: -2.13%

**Q.** With `O=C(OC1CN2CCC1CC2)c1ccccc1` (stereo not drawn) as the molecule, how does the inhibition read?
**A.** inactive: 0.7%

**Q.** How did the inhibition turn out when `CCC(=O)N1C2C3N(C(=O)CC)C1C1N(C(=O)CC)C(C(N1C(=O)CC)N3C(=O)CC)N2C(=O)CC` was run?
**A.** inactive: -2.51%

**Q.** How did the inhibition turn out when `COC(=O)c1cc2c(s1)N=C(c1ccccc1)N(C)P2(=O)N1CCOCC1` (stereo not drawn) was run?
**A.** inactive: -0.68%

**Q.** How did the inhibition turn out when `Cc1ccc(OP(=O)(Nc2ccccn2)Oc2ccc(C)cc2)cc1` was run?
**A.** inactive: -1.83%

**Q.** Which inhibition does the source give for `CC(=O)NC(SC(=S)N(CC(C)C)CC(C)C)C(Cl)(Cl)Cl` (stereo not drawn) here?
**A.** inactive: -2.42%

**Q.** For `c1ccc(-c2nn[nH]n2)c(-c2nn[nH]n2)c1`, which inhibition is on record?
**A.** inactive: 1.68%

**Q.** For `CCOC(=O)NC(Sc1ccccc1)C(Cl)(Cl)Cl` (stereo not drawn), which inhibition is on record?
**A.** inactive: -0.45%

**Q.** `Cc1ccc(NP(=O)(Oc2cccc(C)c2)Oc2cccc(C)c2)nc1` was tested. Which inhibition did it give?
**A.** inactive: 1.61%

**Q.** `O=C(NC1CCS(=O)(=O)C1)NP(=S)(Oc1ccccc1)Oc1ccccc1` (stereo not drawn) was tested. Which inhibition did it give?
**A.** inactive: -2.73%

**Q.** With `CCNC(=S)/N=C(\N)N[N+](=O)[O-]` as the molecule, how does the inhibition read?
**A.** active: 7.01%

**Q.** `O=C(OC1CN2CCC1CC2)c1cccc(Cl)c1` (stereo not drawn) was tested. Which inhibition did it give?
**A.** inactive: -4.98%

**Q.** `Nc1ccc([As](=O)(O)c2ccc([N+](=O)[O-])cc2)cc1` was tested. Which inhibition did it give?
**A.** inactive: -0.43%

**Q.** How did the inhibition turn out when `C(Cc1nn[nH]n1)Cc1nn[nH]n1` was run?
**A.** inactive: -2.94%

**Q.** How did the inhibition turn out when `O=[As](O)(c1ccccc1)c1ccc(O)cc1` was run?
**A.** inactive: -0.7%

**Q.** `O=[N+]([O-])c1ncn(CCn2cnc([N+](=O)[O-])n2)n1` was tested. Which inhibition did it give?
**A.** inactive: -5.1%

**Q.** How did the inhibition turn out when `CC(=O)NC(SC(=S)N(C)C)C(Cl)(Cl)Cl` (stereo not drawn) was run?
**A.** inactive: -1.38%

**Q.** For `O=[N+]([O-])c1ccc(O)c(/C=N/Nc2ccc([N+](=O)[O-])cc2[N+](=O)[O-])c1`, which inhibition is on record?
**A.** inactive: -2.17%

**Q.** Which inhibition does the source give for `O=P(Nc1nc2ccccc2s1)(c1ccccc1)c1ccccc1` here?
**A.** inactive: -2.91%

**Q.** `CN(C)C1(CNC(=O)c2ccc(Cl)c(S(N)(=O)=O)c2)CCCCC1` was tested. Which inhibition did it give?
**A.** inactive: -2.37%

**Q.** With `O=P(Nc1ccccn1)(c1ccc(Br)cc1)c1ccc(Br)cc1` as the molecule, how does the inhibition read?
**A.** inactive: -1.14%

**Q.** How did the inhibition turn out when `c1nnnn1CCn1cnnn1` was run?
**A.** inactive: -3.35%

**Q.** How did the inhibition turn out when `O=P(Nc1nccs1)(c1ccccc1)c1ccccc1` was run?
**A.** inactive: -3.25%

**Q.** How did the inhibition turn out when `CC(C)C(=O)NC(Sc1ccccc1)C(Cl)(Cl)Cl` (stereo not drawn) was run?
**A.** inactive: -2.6%
